The structures appear in SMILES notation.

Sequences of proteins named here, by UniProt entry; tags and fusion partners are left off.
UniProt Q16539, whole entry: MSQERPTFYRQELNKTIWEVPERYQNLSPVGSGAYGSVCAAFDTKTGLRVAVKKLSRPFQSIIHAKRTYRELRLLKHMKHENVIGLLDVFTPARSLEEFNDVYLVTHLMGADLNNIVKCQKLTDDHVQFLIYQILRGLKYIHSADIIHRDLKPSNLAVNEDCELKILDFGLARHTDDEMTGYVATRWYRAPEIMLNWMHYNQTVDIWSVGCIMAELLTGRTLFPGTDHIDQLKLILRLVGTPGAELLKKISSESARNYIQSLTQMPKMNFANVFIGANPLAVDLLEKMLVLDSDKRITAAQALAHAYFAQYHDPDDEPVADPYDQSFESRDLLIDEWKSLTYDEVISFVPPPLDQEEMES

In one experiment the target is p38 MAP kinase (unphosphorylated p38-alpha kinase) (Homo sapiens, UniProt Q16539). Nature of the experiment: P38 MAP kinase binding assay (fluorescence competition with SKF 86002 probe). The conditions noted are these: IC50 values obtained at 2 hours reaction time; 1 μM SKF 86002, 80 nM p38 kinase. As to the method:
The reaction was initiated by addition of the enzyme. […] By comparison of rfu (relative fluorescence unit) values with that of a control (in the absence of an inhibitor), the percentage of inhibition at each concentration of the inhibitor was calculated. IC50 value for the inhibitor was calculated from the % inhibition values obtained at a range of concentrations of the inhibitor using Prism. When time-dependent inhibition was assessed, the plate was read at multiple reaction times such as 0.5, 1, 2, 3, 4 and 6 hours. The IC50 values were calculated at the each time point. An inhibition was assigned as time-dependent if the IC50 values decrease with the reaction time (more than two-fold in four hours).
For the molecule `Cn1[nH]c(=O)n(Cc2cccc(-n3nc(C(C)(C)C)cc3NC(=O)Nc3cccc4ccccc34)c2)c1=O` [Example 1, 1-(3-tert-butyl-1-{3-[(1-methyl-3,5-dioxo-1,2,4-triazolidin-4-yl)methyl]phenyl}-1H-pyrazol-5-yl)-3-(naphthalene-1-yl)urea], the IC50 (as a rule, the concentration at which inhibition is half-maximal) was 292 nM.

The target of another experiment is T1, phospho p-38 alpha kinase (Homo sapiens, UniProt Q16539).
T1 construct: purchased Panvera
Description: P-38 alpha kinase assay (spectrophotometric, pyruvate kinase/lactate dehydrogenase coupled). The note with it: Table 2; rates from […] to 2 h time frame. It is filed as biochemical. As to the method: In this assay, the oxidation of NADH was continuously measured spectrophometrically. […] The reaction was initiated by adding ATP. The absorption at 340 nm was monitored continuously for up to 4 hours at 30° C. on Polarstar Optima plate reader (BMG). The kinase activity (reaction rate) was calculated from the slope at the time frame from 1.5 h to 2 h.
For inhibition determinations, test compounds were incubated with the reaction mixture for ˜5 min before adding ATP to start the reaction. […] IC50 values were calculated from a series of % inhibition values determined at a range of concentrations of each inhibitor using Prism to process the data and fit inhibition curves. Generally, the rates obtained at the time frame of 1.5 h to 2 h were used for these calculations.
On to `Cn1[nH]c(=O)n(Cc2cccc(-n3nc(C(C)(C)C)cc3NC(=O)Nc3cccc4ccccc34)c2)c1=O` [Example 1, 1-(3-tert-butyl-1-{3-[(1-methyl-3,5-dioxo-1,2,4-triazolidin-4-yl)methyl]phenyl}-1H-pyrazol-5-yl)-3-(naphthalene-1-yl)urea], for which 67 nM corresponded to half-maximal inhibition (IC50).

Take `Cn1[nH]c(=O)n(Cc2cccc(-n3nc(C(C)(C)C)cc3NC(=O)Nc3ccc(Cl)cc3)c2)c1=O` [Example 2, 1-(3-tert-butyl-1-{3-[(1-methyl-3,5-dioxo-1,2,4-triazolidin-4-yl)methyl]phenyl}-1H-pyrazol-5-yl)-3-(4-chlorophenyl)urea]: half-maximal inhibition (IC50) required 290 nM. This IC50 lies about 4.3-fold higher than the previous one.

On to `CC(C)(C)c1cc(NC(=O)Nc2ccc(Cl)cc2)n(-c2cccc(CC(N)=O)c2)n1` [Example 26, 1-{3-tert-butyl-1-[3-(carbamoylmethyl)phenyl)-1H-pyrazol-5-yl}-3-(4-chlorophenyl)urea], for which the midpoint of inhibition, the IC50, lay at 190 nM.

Consider `CC(C)(C)c1cc(NC(=O)Nc2cccc3ccccc23)n(-c2cccc(CCC(=O)O)c2)n1` [Example 29], for which the IC50 is 11 nM.

Consider `CC(C)(C)c1cc(NC(=O)Nc2ccc(Cl)cc2)n(-c2cccc(CCC(=O)O)c2)n1` [Example 30, 3-(3-{3-tert-butyl-5-[3-(4-chlorophenyl)ureido]-1H-pyrazol-1-yl)phenyl)propionic acid], for which the IC50 turned out to be 251 nM.

`CC(C)(C)c1cc(NC(=O)Nc2cccc3ccccc23)n(-c2ccc(CCC(=O)O)cc2)n1` [Example 31, 3-{4-[3-tert-butyl-5-(3-(naphthalene-1-yl)ureido]-1H-pyrazol-1-yl}phenyl)propanonic acid] yielded an IC50 of 56 nM.

As for `CC(C)(C)c1cc(NC(=O)Nc2ccc(Cl)cc2)n(-c2ccc(CCC(=O)O)cc2)n1` [Example 32, 3-{4-[3-tert-butyl-5-(3-(4-chlorophenyl)ureido]-1H-pyrazol-1-yl}phenyl)propanonic acid], the IC50 was 307 nM.

Staying with this experiment, now noted: Table 3; rates from […] to 2 h time frame.
`CC1C(=O)NS(=O)(=O)N1Cc1cccc(-n2nc(C(C)(C)C)cc2NC(=O)Nc2cccc3ccccc23)c1` (stereo in doubt) [Example 160, 1-{5-t-butyl-2-[3-((S)-3-methyl-1,1,4-trioxo-1λ^6-[1,2,5]thiadiazolidin-2-ylmethyl)-phenyl]-2H-pyrazol-3-yl}-3-naphthalen-1-yl-urea] gave an IC50 of 44 nM.

On to `CC1C(=O)NS(=O)(=O)N1Cc1cccc(-n2nc(C(C)(C)C)cc2NC(=O)Nc2cccc3ccccc23)c1` (stereo in doubt) [Example 161, 1-{5-t-butyl-2-[3-((R)-3-methyl-1,1,4-trioxo-1λ^6-[1,2,5]thiadiazolidin-2-ylmethyl)-phenyl]-2H-pyrazol-3-yl}-3-naphthalen-1-yl-urea], for which inhibition was half-maximal at 100 nM (IC50).

For `CC(C)(C)c1cc(NC(=O)Nc2cccc(Cl)c2Cl)n(-c2cccc(CC(N)=O)c2)n1` [Example 411, 1-{1-[3-(2-amino-2-oxoethyl)phenyl]-3-t-butyl-1H-pyrazol-5-yl}-3-(2,3-dichlorophenyl)urea], the IC50 turned out to be 8 nM.

Staying with this experiment, now noted: read-out: % inhibition @ concentration, Table 2; at 1.0 uM.
On to `CC(C)(C)c1cc(NC(=O)Nc2ccc(Cl)cc2)n(-c2ccc(O)cc2)n1` [Example 54, 1-{3-tert-butyl-1-(4-hydroxyphenyl)-1H-pyrazol-5-yl}-3-(4-chlorophenyl)urea], for which the inhibition at 1 µM worked out at 68%.

These data come from patent publication US20070191336A1 (priority 2003, published 2007).
